# Laboratory results reported in publication PMC9569529, “Safe and Efficient Sigma1 Ligand: A Potential Drug Candidate for Multiple Sclerosis” (International Journal of Molecular Sciences, 2022).
# Columns and labels:
# [1] = test system: S. typhimurium TA1535; test: Ames test; conditions: 7i 40 µg/plate, positive control MNNG 0.25
# [2] = test system: S. typhimurium TA100; test: Ames test; conditions: 7i 40 µg/plate, positive control MNNG 0.25
substance,measurement,setting,value
MNNG,Ames TA1535 −S9 (Mean revertants/well per title),[1],85.9
same,Ames TA100 −S9 (Mean revertants/well per title),[2],13.5
